Ab-95 light chain CDR variants: yeast mating affinities

Antigen: PDVDLGDISGINAS, a 14-residue peptide of the SARS-CoV-2 spike HR2 region.

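Phage display of a naive human antibody library on the peptide gave the parent. The library (AAYL52) carries one to three amino acid substitutions per variant, with no insertions or deletions. In AlphaSeq, yeast of one mating type display the scFv and yeast of the other type display the target. Pairs that bind mate more often; barcode pairs of the diploids are counted by sequencing. A regression on co-assayed BCL2-family reference pairs converts the normalised counts of each replicate to an apparent Kd. The assay was run in three technical replicates.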

Parent scFv Ab-95: VH joined to VL by three GGGGS repeats. Changes lie in the light chain CDRs alone.
VH: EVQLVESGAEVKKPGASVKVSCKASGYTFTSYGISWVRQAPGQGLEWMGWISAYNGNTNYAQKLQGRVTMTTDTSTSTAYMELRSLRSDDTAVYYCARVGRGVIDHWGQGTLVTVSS
VL: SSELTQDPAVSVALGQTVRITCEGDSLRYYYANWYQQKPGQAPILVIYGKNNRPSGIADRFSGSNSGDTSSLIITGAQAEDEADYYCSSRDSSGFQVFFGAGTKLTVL

Changes read parent residue, position, new residue, counted from the first residue of the VL shown. Values are log10 of the apparent Kd in nM; lower means stronger binding. Replicates are averaged; those with no signal do not enter the mean. An entry "n.d." has no value in the source: the pair was not observed among the diploids in that replicate. This suggests poor binding but is not conclusive. For reference, the parent read 2.31 as the reference entry and 2.25 as a member of this library. Nonspecific signal, from three strains lacking the peptide, appeared in 28% of pairings of library AAYL52, centred on 3.91 (5% of these signals below 2.90); values are not corrected for it. The control count says in how many pairings with the empty strains this scFv gave a signal, with their mean in brackets.

changes	replicates, log10 nM	mean, log10 nM	empty controls
R53P	3.29 n.d. n.d.	3.29	7 of 9 (3.57)
Y29R+Y31W+P54R	4.11 n.d. 3.56	3.84	1 of 9 (2.97)
S26G+Y31G+R90D	3.22 3.86 4.37	3.82	4 of 9 (4.14)
G49S+R90W+V97L	4.39 n.d. n.d.	4.39	1 of 9 (4.07)
R53L+F98S	3.27 4.22 n.d.	3.75	6 of 9 (4.44)
D25C+A32V+K50D	1.96 1.86 2.21	2.01	3 of 9 (3.83)
E23V+K50W+S93H	3.29 3.05 n.d.	3.17	2 of 9 (3.67)
A32W+S88Q+D91A	n.d. 4.22 4.22	4.22	6 of 9 (4.02)
K50A+S88M+Q96E	2.69 2.94 2.50	2.71	5 of 9 (4.13)
Y31D+S55Y+F98W	1.03 0.93 0.48	0.81	4 of 9 (4.64)
R28M+G49I+R53G	4.87 5.22 4.64	4.91	3 of 9 (3.79)
R28P+S55N+F95S	2.19 2.82 2.01	2.34	0 of 9
S88V+R90K+D91E	n.d. n.d. n.d.	n.d.	1 of 9 (3.94)
P54D+S93R+F98Q	4.76 n.d. n.d.	4.76	2 of 9 (4.28)
G24I+Y29P+R90K	2.64 3.09 3.00	2.91	2 of 9 (3.05)
S92W+V97R+F98S	n.d. n.d. n.d.	n.d.	2 of 9 (3.49)
K50V+S93G+Q96V	3.32 2.72 2.88	2.97	4 of 9 (4.36)
Y30G+R53P+S92W	3.75 3.17 2.94	3.29	2 of 9 (2.79)
N51F+P54R+R90M	n.d. n.d. n.d.	n.d.	0 of 9
G49D+R53Q+S55N	4.13 n.d. 3.27	3.70	2 of 9 (3.30)
S55I+V97D	2.28 2.28 2.94	2.50	1 of 9 (3.19)
Y31F+S88R+D91M	2.24 3.13 2.34	2.57	1 of 9 (3.89)
R90T+S92P+V97Y	n.d. n.d. n.d.	n.d.	0 of 9
Y31W+N52M+S92L	2.62 2.94 2.52	2.69	5 of 9 (4.28)
S93T+V97A	3.31 2.32 2.10	2.58	1 of 9 (5.21)
G24A+Y29H+R90D	3.42 3.20 n.d.	3.31	8 of 9 (3.70)
D25P+S55E+F95H	2.31 2.64 2.45	2.47	3 of 9 (4.04)
E23K+N51D+N52M	1.72 1.74 1.30	1.59	6 of 9 (3.58)
Y30G	1.08 0.97 0.63	0.89	0 of 9
D25R+Y29W+S92G	3.14 2.32 2.39	2.62	1 of 9 (2.40)
E23F+N52M+G94S	4.22 n.d. n.d.	4.22	1 of 9 (4.11)
Y30R+N51W	3.69 2.87 2.91	3.16	1 of 9 (2.77)
N33M+N51M+F95M	4.47 n.d. n.d.	4.47	3 of 9 (3.11)
Y30G+P54R	1.17 1.17 0.56	0.97	8 of 9 (4.07)
Y29I+G94Q+F98K	n.d. n.d. n.d.	n.d.	1 of 9 (3.51)
R53L+P54Q+D91Y	3.81 n.d. n.d.	3.81	5 of 9 (3.97)
A32W+K50C+P54E	n.d. n.d. n.d.	n.d.	2 of 9 (4.14)
Y31R+R53H+S88K	4.17 5.00 4.28	4.48	4 of 9 (3.43)
S26M+S89P+S92T	4.12 4.22 n.d.	4.17	1 of 9 (4.91)
A32T+R90L+Q96D	3.45 n.d. n.d.	3.45	2 of 9 (3.59)
S26L+N51M+R53A	4.66 n.d. n.d.	4.66	4 of 9 (4.15)
R28G+R53S+F98L	n.d. n.d. n.d.	n.d.	0 of 9

Excerpt, the first 4 entries:

changes	replicates, log10 nM	mean, log10 nM	empty controls
R53P	3.29 n.d. n.d.	3.29	7 of 9 (3.57)
Y29R+Y31W+P54R	4.11 n.d. 3.56	3.84	1 of 9 (2.97)
S26G+Y31G+R90D	3.22 3.86 4.37	3.82	4 of 9 (4.14)
G49S+R90W+V97L	4.39 n.d. n.d.	4.39	1 of 9 (4.07)

The measurements come from Engelhart et al. 2022 (doi:10.1038/s41597-022-01779-4) through the FLAb antibody collection.